Earlier results, collected in patent US20090306093A1, “METHOD FOR TREATING PATIENT HAVING BENIGN PROSTATE HYPERPLASIA” (KAOHSIUNG MEDICAL UNIVERSITY, priority 2008, published 2009).

Sequences of proteins named here, by UniProt entry; tags and fusion partners are left off.
UniProt P35368, whole entry: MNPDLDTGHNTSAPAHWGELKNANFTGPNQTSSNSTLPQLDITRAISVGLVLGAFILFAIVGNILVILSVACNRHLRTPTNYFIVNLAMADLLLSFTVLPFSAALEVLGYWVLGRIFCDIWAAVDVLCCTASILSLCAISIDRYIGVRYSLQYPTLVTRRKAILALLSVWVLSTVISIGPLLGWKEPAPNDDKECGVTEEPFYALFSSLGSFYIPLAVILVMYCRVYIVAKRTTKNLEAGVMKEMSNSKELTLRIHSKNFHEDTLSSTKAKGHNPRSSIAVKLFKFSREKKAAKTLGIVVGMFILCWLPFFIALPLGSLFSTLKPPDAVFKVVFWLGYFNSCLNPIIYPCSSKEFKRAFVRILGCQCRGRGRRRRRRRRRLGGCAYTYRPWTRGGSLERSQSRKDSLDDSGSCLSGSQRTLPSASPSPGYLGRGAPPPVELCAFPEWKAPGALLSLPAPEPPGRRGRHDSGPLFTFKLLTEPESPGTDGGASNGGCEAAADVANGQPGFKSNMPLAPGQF

Biological target: a1B-adrenergic receptor (Homo sapiens, UniProt P35368)
Settings: data from the reference; cited from earlier work

COc1cc2nc(N3CCN(C(=O)C4COc5ccccc5O4)CC3)nc(N)c2cc1OC (stereo not shown) [doxazosin]
Receptor Affinity (pKi) a1B: 8.98
